# Data as given in patent US20130030001A1 (priority 2008, published 2013).
# Chains of the proteins cited; added tags and fusions are not shown.
# UniProt P20309, whole entry: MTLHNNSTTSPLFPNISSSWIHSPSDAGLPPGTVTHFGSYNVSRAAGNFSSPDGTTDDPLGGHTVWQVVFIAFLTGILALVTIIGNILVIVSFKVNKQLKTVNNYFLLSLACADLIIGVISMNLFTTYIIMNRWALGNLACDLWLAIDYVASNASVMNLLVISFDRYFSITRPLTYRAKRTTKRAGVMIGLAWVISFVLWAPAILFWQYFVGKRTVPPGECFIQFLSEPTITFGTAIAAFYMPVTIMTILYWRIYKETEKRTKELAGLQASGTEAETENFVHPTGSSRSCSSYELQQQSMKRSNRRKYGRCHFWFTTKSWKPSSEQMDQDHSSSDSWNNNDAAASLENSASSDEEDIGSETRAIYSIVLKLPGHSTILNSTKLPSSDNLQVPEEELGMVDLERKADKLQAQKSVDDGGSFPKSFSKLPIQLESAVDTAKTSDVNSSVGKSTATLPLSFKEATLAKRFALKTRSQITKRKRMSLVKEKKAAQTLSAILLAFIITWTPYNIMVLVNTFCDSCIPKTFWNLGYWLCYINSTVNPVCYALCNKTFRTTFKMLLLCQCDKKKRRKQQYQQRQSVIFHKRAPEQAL
# Molecular target: T1, human muscarinic acetylcholine M3 receptor (Homo sapiens, UniProt P20309)
# T1 construct: expressed in transfected cells; host or cells: CHO-K1 (Chinese Hamster Ovary) cell membranes
# Test: biochemical
# Details: M3 binding IC50
compound,measurement,value
"Cc1nccc(NC(=O)C[N+]23CCC(CC2)[C@@H](OC(=O)C2(c4ccccc4)CCCCCC2)C3)n1 [Example 58, (R)-1-[(2-Methyl-pyrimidin-4-ylcarbamoyl)-methyl]-3-(1-phenyl-cycloheptanecarbonyloxy)-1-azonia-bicyclo[2.2.2]octane chloride]",IC50,< 2 nM
